# According to ChEMBL document CHEMBL1124174, “Substituted benzamides. 1. Potential nondopaminergic antagonists of chemotherapy-induced nausea and emesis” (J Med Chem, 1988):
# Amino acid sequences for entries named in this document (tags omitted).
# UniProt P61169, whole entry: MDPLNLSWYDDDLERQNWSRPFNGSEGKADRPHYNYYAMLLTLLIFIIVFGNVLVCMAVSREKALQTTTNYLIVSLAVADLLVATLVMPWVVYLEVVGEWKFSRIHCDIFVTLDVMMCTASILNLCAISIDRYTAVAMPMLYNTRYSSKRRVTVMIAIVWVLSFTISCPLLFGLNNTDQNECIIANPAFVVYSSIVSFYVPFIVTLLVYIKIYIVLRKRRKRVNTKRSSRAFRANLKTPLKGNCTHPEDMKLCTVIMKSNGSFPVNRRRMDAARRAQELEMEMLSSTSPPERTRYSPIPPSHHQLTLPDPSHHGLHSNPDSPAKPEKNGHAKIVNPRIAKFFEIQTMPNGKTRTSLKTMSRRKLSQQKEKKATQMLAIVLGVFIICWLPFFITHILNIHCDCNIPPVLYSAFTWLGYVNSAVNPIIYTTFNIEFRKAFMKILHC
# Target: D(2) dopamine receptor (Rattus norvegicus, UniProt P61169)
# Test: In vitro antagonistic activity against Dopamine receptor D2 was evaluated for the inhibition of [3H]spiperone binding
# Outline: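 Rat striatal membranes were prepared by differential centrifugation in 50 mM Tris pH 7.4 at 4 °C. Membrane protein (10 mg) was incubated 15 min at 37 °C with 0.1 nM [3H]spiperone and varying competitor concentrations. Buffer: 50 mM Tris HCl pH 7.5, 0.1% ascorbic acid, pargyline, 120 mM NaCl, 5 mM KCl, 2 mM CaCl2, 1 mM MgCl2. (+)-Butaclamol defined nonspecific binding. Bound ligand was collected by filtration and scintillation counted. IC50 by log-logit regression.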
structure (smiles),measurement,value
CCN(CC)CCNC(=O)c1cc(Cl)c(N)cc1OC [METOCLOPRAMIDE],IC50,565 nM
